Results reported in US10869871B2, “Compositions and methods of modulating short-chain dehydrogenase activity” (CASE WESTERN RESERVE UNIVERSITY, priority 2013, dated 2020).

Experiments:
15-PGDH protein = test: Western blot of 15-PGDH protein levels in treated cell lines; assay type: cell-based; conditions: V400-M3-2-72 cells
15-PGDH mRNA = 15-PGDH mRNA levels in colon cancer cell lines by real-time PCR; assay type: cell-based; conditions: treated colon cancer cell lines

## COc1ccc(-c2cc(C(F)(F)F)n3nc(C(=O)N4CCCCC4)cc3n2)cc1
15-PGDH protein
  protein levels of catalytically dead mutant 15-PGDH (mu-PGDH): increases protein levels of a catalytically dead mutant 15-PGDH
15-PGDH mRNA
  15-PGDH mRNA levels: do not in general alter 15-PGDH mRNA levels
